Experimental data: PubChem BioAssay (NCI)
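Values below derive from 48-hour exposures of cells grown in 96-well plates, with endpoints linearly interpolated between the two concentrations bracketing the appropriate inhibition level. GI50 = concentration required for 50% inhibition of growth. TGI marks complete inhibition of growth.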

Tests used:
Assay in all cases: NCI anticancer screen, dose series, 48 h
[1] = system: 786-0 renal
[2] = system: A498 renal
[3] = system: A549 NSCLC
[4] = system: ACHN renal
[5] = system: BT-549 breast
[6] = system: CAKI-1 renal
[7] = system: CCRF-CEM leukemia
[8] = system: COLO 205 colon
[9] = system: DU-145 prostate
[10] = system: EKVX NSCLC
[11] = system: HCC-2998 colon
[12] = system: HCT-116 colon
[13] = system: HCT-15 colon
[14] = system: HL-60(TB) leukemia
[15] = system: HOP-62 NSCLC
[16] = system: HOP-92 NSCLC
[17] = system: HS 578T breast
[18] = system: HT29 colon
[19] = system: IGROV1 ovarian
[20] = system: K-562 leukemia
[21] = system: KM12 colon
[22] = system: LOX IMVI melanoma
[23] = system: M14 melanoma
[24] = system: MALME-3M melanoma
[25] = system: MCF7 breast
[26] = system: MDA-MB-231 breast
[27] = system: MDA-MB-435
[28] = system: MDA-N
[29] = system: MOLT-4 leukemia
[30] = system: NCI-H226 lung
[31] = system: NCI-H23 lung
[32] = system: NCI-H322M lung
[33] = system: NCI-H460 lung
[34] = system: NCI-H522 lung
[35] = system: NCI/ADR-RES ovarian
[36] = system: OVCAR-3 ovarian
[37] = system: OVCAR-4 ovarian
[38] = system: OVCAR-5 ovarian
[39] = system: OVCAR-8 ovarian
[40] = system: PC-3 prostate
[41] = system: RPMI-8226 leukemia
[42] = system: RXF 393 renal
[43] = system: SF-268 CNS
[44] = system: SF-295 CNS
[45] = system: SF-539 CNS
[46] = system: SK-MEL-2 melanoma
[47] = system: SK-MEL-28 melanoma
[48] = system: SK-MEL-5 melanoma
[49] = system: SK-OV-3 ovarian
[50] = system: SN12C renal
[51] = system: SNB-19 CNS
[52] = system: SNB-75 CNS
[53] = system: SR leukemia
[54] = system: SW-620 colon
[55] = system: T-47D breast
[56] = system: TK-10 renal
[57] = system: U251 CNS
[58] = system: UACC-257 melanoma
[59] = system: UACC-62 melanoma
[60] = system: UO-31 renal

NC(=O)Nc1ccc([As](=O)(O)O)cc1
GI50 [1]: > 100 µM | TGI [1]: > 100 µM | GI50 [2]: > 100 µM | TGI [2]: > 100 µM | GI50 [3]: > 100 µM | TGI [3]: > 100 µM | GI50 [4]: > 100 µM | TGI [4]: > 100 µM | GI50 [5]: > 100 µM | TGI [5]: > 100 µM | GI50 [6]: > 100 µM | TGI [6]: > 100 µM | GI50 [7]: > 100 µM | TGI [7]: > 100 µM | GI50 [8]: > 100 µM | TGI [8]: > 100 µM | GI50 [9]: > 100 µM | TGI [9]: > 100 µM | GI50 [10]: > 100 µM | TGI [10]: > 100 µM | GI50 [11]: > 100 µM | TGI [11]: > 100 µM | GI50 [12]: > 100 µM | TGI [12]: > 100 µM | GI50 [13]: > 100 µM | TGI [13]: > 100 µM | GI50 [14]: > 100 µM | TGI [14]: > 100 µM | GI50 [15]: > 100 µM | TGI [15]: > 100 µM | GI50 [16]: > 100 µM | TGI [16]: > 100 µM | GI50 [17]: > 100 µM | TGI [17]: > 100 µM | GI50 [18]: > 100 µM | TGI [18]: > 100 µM | GI50 [19]: > 100 µM | TGI [19]: > 100 µM | GI50 [20]: > 100 µM | TGI [20]: > 100 µM | GI50 [21]: > 100 µM | TGI [21]: > 100 µM | GI50 [22]: > 100 µM | TGI [22]: > 100 µM | GI50 [23]: > 100 µM | TGI [23]: > 100 µM | GI50 [24]: > 100 µM | TGI [24]: > 100 µM | GI50 [25]: > 100 µM | TGI [25]: > 100 µM | GI50 [26]: > 100 µM | TGI [26]: > 100 µM | GI50 [27]: > 100 µM | TGI [27]: > 100 µM | GI50 [28]: > 100 µM | TGI [28]: > 100 µM | GI50 [29]: > 100 µM | TGI [29]: > 100 µM | GI50 [30]: > 100 µM | TGI [30]: > 100 µM | GI50 [31]: > 100 µM | TGI [31]: > 100 µM | GI50 [32]: > 100 µM | TGI [32]: > 100 µM | GI50 [33]: > 100 µM | TGI [33]: > 100 µM | GI50 [34]: > 100 µM | TGI [34]: > 100 µM | GI50 [35]: > 100 µM | TGI [35]: > 100 µM | GI50 [36]: > 100 µM | TGI [36]: > 100 µM | GI50 [37]: > 100 µM | TGI [37]: > 100 µM | GI50 [38]: > 100 µM | TGI [38]: > 100 µM | GI50 [39]: > 100 µM | TGI [39]: > 100 µM | GI50 [40]: > 100 µM | TGI [40]: > 100 µM | GI50 [41]: > 100 µM | TGI [41]: > 100 µM | GI50 [42]: > 100 µM | TGI [42]: > 100 µM | GI50 [43]: > 100 µM | TGI [43]: > 100 µM | GI50 [44]: > 100 µM | TGI [44]: > 100 µM | GI50 [45]: > 100 µM | TGI [45]: > 100 µM | GI50 [46]: > 100 µM | TGI [46]: > 100 µM | GI50 [47]: > 100 µM | TGI [47]: > 100 µM | GI50 [48]: > 100 µM | TGI [48]: > 100 µM | GI50 [49]: > 100 µM | TGI [49]: > 100 µM | GI50 [50]: > 100 µM | TGI [50]: > 100 µM | GI50 [51]: > 100 µM | TGI [51]: > 100 µM | GI50 [52]: > 100 µM | TGI [52]: > 100 µM | GI50 [53]: > 100 µM | TGI [53]: > 100 µM | GI50 [54]: > 100 µM | TGI [54]: > 100 µM | GI50 [55]: > 100 µM | TGI [55]: > 100 µM | GI50 [56]: > 100 µM | TGI [56]: > 100 µM | GI50 [57]: > 100 µM | TGI [57]: > 100 µM | GI50 [58]: > 100 µM | TGI [58]: > 100 µM | GI50 [59]: > 100 µM | TGI [59]: > 100 µM | GI50 [60]: > 100 µM | TGI [60]: > 100 µM
